Test: xn = mol fraction of the nth substance listed
Conditions: Liquid, Vibrating tube method, x1 = 1

CCCCOCCCC [dibutyl ether] + CCCCCCCO
mass density [kg/m3]
Conditions | 298.15 K | 313.15 K | 333.15 K | 353.15 K | 373.15 K | 393.15 K
100 kPa | 763.8 | 750.7 | 733 | 715 | – | –
1000 kPa | 764.7 | 751.6 | 734 | 716.2 | 697.9 | 679
5000 kPa | 768.2 | 755.6 | 738.5 | 721.3 | 703.8 | 685.9
10000 kPa | 772.4 | 760.1 | 743.6 | 727.2 | 710.5 | 693.5
15000 kPa | 776.4 | 764.5 | 748.6 | 732.7 | 716.7 | 700.6
20000 kPa | 780.2 | 768.6 | 753.1 | 737.8 | 722.4 | 706.9
25000 kPa | 783.7 | 772.3 | 757.5 | 742.6 | 727.7 | 712.8
30000 kPa | 787.3 | 776.2 | 761.5 | 747.1 | 732.7 | 718.3
35000 kPa | 790.6 | 779.7 | 765.5 | 751.4 | 737.4 | 723.5
40000 kPa | 793.8 | 783.1 | 769.2 | 755.4 | 741.9 | 728.3
45000 kPa | 796.9 | 786.4 | 772.7 | 759.3 | 746.1 | 732.8
50000 kPa | 799.8 | 789.7 | 776.2 | 763 | 750 | 737.2
55000 kPa | 802.8 | 792.7 | 779.6 | 766.6 | 754 | 741.4
60000 kPa | 805.6 | 795.7 | 782.7 | 770.1 | 757.7 | 745.3
65000 kPa | 808.3 | 798.6 | 785.8 | 773.4 | 761.2 | 749.1
70000 kPa | 811 | 801.4 | 788.8 | 776.7 | 764.6 | 752.8
80000 kPa | 816.1 | 806.7 | 794.6 | 782.7 | 771.2 | 759.7
90000 kPa | 821 | 811.9 | 800 | 788.5 | 777.3 | 766.2
100000 kPa | 825.5 | 816.7 | 805.2 | 794 | 783 | 772.3
110000 kPa | 830 | 821.4 | 810 | 799.2 | 788.5 | 778.1
120000 kPa | 834.2 | 825.7 | 814.7 | 804 | 793.6 | 783.4
130000 kPa | 838.3 | 830.1 | 819.3 | 808.7 | 798.6 | 788.6
140000 kPa | 842.1 | 834.2 | 823.5 | 813.3 | 803.3 | 793.6

— the NIST ThermoML archive (doi:10.1016/j.jct.2018.11.010)
